Results from publication PMC2716403.
Blank lines part the entries; values can stand above or below the substance they belong to.

Key:
Test in all cases: ITC
[1] = molecular target: Nup153ZnF1234 (entire ZnF region of Nup153) (Rattus norvegicus) (UniProt P49791)
[2] = molecular target: Nup153-ZnF1 (Rattus norvegicus) (UniProt P49791)
[3] = molecular target: Nup153-ZnF12 (tandem pair of ZnF1 and ZnF2) (Rattus norvegicus) (UniProt P49791)
[4] = molecular target: Nup153-ZnF1Q8D (Rattus norvegicus)
[5] = molecular target: Nup153-ZnF2 (Rattus norvegicus) (UniProt P49791)
[6] = molecular target: Nup153-ZnF2D8Q (Rattus norvegicus)
[7] = molecular target: Nup153-ZnF3 (Rattus norvegicus) (UniProt P49791)
[8] = molecular target: Nup153-ZnF34 (tandem pair of ZnF3 and ZnF4) (Rattus norvegicus) (UniProt P49791)
[9] = molecular target: Nup153-ZnF4 (Rattus norvegicus) (UniProt P49791)
[10] = molecular target: Nup153-ZnF4D8Q (Rattus norvegicus)
[11] = molecular target: Nup358-ZnF12 (Homo sapiens) (UniProt P49792)

Kd 1 (first set of sites) [1]: 20 µM
dH1 (first set of sites) [1]: -39.3 kJ/mol
Substance: RanQ69L (GTP-bound, GTPase deficient mutant) (from UniProt P62828 1-216) (natural protein)

stoichiometry N [2]: 1
Kd 1 (site 1) [3]: 4 µM
Kd 2 (site 2) [3]: 57 µM
N1 (site 1) [3]: 1
N2 (site 2) [3]: 1
dH1 (site 1) [3]: -41 kJ/mol
dH2 (site 2) [3]: 20.4 kJ/mol
Kd [4]: 8 µM
dH [4]: -11.2 kJ/mol
stoichiometry N [4]: 1
dH [5]: 16.8 kJ/mol
stoichiometry N [5]: 1
Kd [6]: 4 µM
stoichiometry N [6]: 1
stoichiometry N [7]: 1
Kd 1 (site 1) [8]: 3 µM
Kd 2 (site 2) [8]: 59 µM
N1 (site 1) [8]: 1
N2 (site 2) [8]: 1
dH1 (site 1) [8]: -17.2 kJ/mol
dH2 (site 2) [8]: -2.2 kJ/mol
dH [9]: 12.6 kJ/mol
stoichiometry N [10]: 1
Kd 1 (first set of sites) [1]: 1 µM
Kd 2 (second set of sites) [1]: 8 µM
N1 (first set of sites) [1]: 2
N2 (second set of sites) [1]: 2
dH1 (first set of sites) [1]: -40.8 kJ/mol
dH2 (second set of sites) [1]: 3.9 kJ/mol
stoichiometry N [1]: 4
stoichiometry N [11]: 2
Substance: RanGDP (wild-type Ran, GDP-bound) (from UniProt P62828 1-216) (natural protein)
